Earlier results in US10905897B2, “Synergistic treatment methodologies using light therapy” (Neuro-Laser Foundation, Inc., priority 2016, dated 2021).

System: depressive symptoms and suicidal ideation
Conditions: ketamine 0.5 mg/kg infused over a 30-40 minute period, single infusion; cited from earlier work

Question: Which “patients with rapid reduction in depressive symptoms and suicidal ideation” value does the source give for `CNC1(c2ccccc2Cl)CCCCC1=O` (stereo not shown) [ketamine] here?
Answer: 60-75%
